US8648078B2, “PLK inhibitor salts” (Nerviano Medical Sciences S.R.L., priority 2009, dated 2014)

Legend:
[1] = Aqueous solubility of compound 937 salts and free base (excess solid stirred in water, filtered, HPLC); assay type: physicochemical; conditions: RT, stirred 4 hours, excess solid (target 10 mg/ml)
Description: The obtained preparations have been filtered and analyzed by means of HPLC.

[2] = Solubility of compound 937 in early formulation vehicles / as in situ salt; assay type: physicochemical; conditions: aqueous with cosolvent or surfactant or cyclodextrin; in aqueous 50% polyethylene glycol 400 in 5% dextrose solution

Structure (SMILES) | aqueous solubility [1] | aqueous solubility ([1]; listed as compound 937 free base) | solubility [2]
CN1CCN(c2ccc(OC(F)(F)F)c(Nc3ncc4c(n3)-c3c(c(C(N)=O)nn3CCO)CC4)c2)CC1.O=C(O)C[C@H](O)C(=O)O [compound 937 L-malate salt] | 3900 µg/mL |  | 
CN1CCN(c2ccc(OC(F)(F)F)c(Nc3ncc4c(n3)-c3c(c(C(N)=O)nn3CCO)CC4)c2)CC1.O=C(O)/C=C/C(=O)O [compound 937 fumarate salt] | 700 µg/mL |  | 
CN1CCN(c2ccc(OC(F)(F)F)c(Nc3ncc4c(n3)-c3c(c(C(N)=O)nn3CCO)CC4)c2)CC1.O=C(O)/C=C\C(=O)O [compound 937 maleate salt] | 3100 µg/mL |  | 
CN1CCN(c2ccc(OC(F)(F)F)c(Nc3ncc4c(n3)-c3c(c(C(N)=O)nn3CCO)CC4)c2)CC1 [compound 937, 1-(2-hydroxy-ethyl)-8-[5-(4-methyl-piperazin-1-yl)-2-trifluoromethoxy-phenylamino]-4,5-dihydro-1H-pyrazolo[4,3-h]quinazoline-3-carboxamide] |  | < 100 µg/mL | ~7000 µg/mL
